Results taken from patent US6242173A, “Immunoassays for catalytically-active, serine proteases” (University of Vermont and State Agriculatural College, priority 1992, dated 2001).

Protein sequences, listed by entry. Tags and fused reporters are not part of them. Residues count along the entry.
UniProt P00743, 41-180 partner limits assumed: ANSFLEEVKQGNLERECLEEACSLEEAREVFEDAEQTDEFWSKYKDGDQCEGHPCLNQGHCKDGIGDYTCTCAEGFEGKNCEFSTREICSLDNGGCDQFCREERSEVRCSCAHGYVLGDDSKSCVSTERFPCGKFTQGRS
UniProt P00743, 234-492 limits assumed: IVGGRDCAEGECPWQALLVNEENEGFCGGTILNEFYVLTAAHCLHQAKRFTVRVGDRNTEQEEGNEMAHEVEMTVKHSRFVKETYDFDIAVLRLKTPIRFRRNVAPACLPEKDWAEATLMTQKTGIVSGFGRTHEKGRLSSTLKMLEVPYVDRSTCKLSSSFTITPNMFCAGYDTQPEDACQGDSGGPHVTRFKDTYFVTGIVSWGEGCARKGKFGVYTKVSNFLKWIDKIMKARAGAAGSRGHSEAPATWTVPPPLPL

Biological target: factor Xa (Bos taurus, UniProt P00743)
Experiment: Removal of active enzyme from zymogen with biotinylated chloromethyl ketone and avidin matrix
Conditions: bovine factor X doped with 10% (w/w) factor Xa

Biotinyl-ε-aminocaproyl-L-tyrosylglycyl-L-arginine chloromethyl ketone [BC-YGR-CK]
factor Xa remaining after treatment and avidin matrix: Identical results
